Source: patent publication US5891679A, “TNF-alpha muteins and a process for preparing them” (priority 1993, dated 1999)

What was measured:
Trypanosoma musculi [1] = settings: cited from earlier work
[2] = in vivo; cited from earlier work
[3] = system: 3LL-R Lewis lung carcinoma cells; assay: Experimental metastasis inducing capacity on TNF resistant 3LL-R Lewis lung carcinoma cells; type: in vivo, mouse (C57bl/6); settings: TNF-α treated mice, 17 days
Method: The metastasis-promoting effect of wild type and tip deleted mouse TNF-α was compared by use of the 3LL-R tumorigenic Lewis lung carcinoma cell line (wt and del mTNF-resistant Lewis lung carcinoma) (Remels et al., 1989). Thereto, 8 weeks old female C57bl/6 mice (5 mice/group) (Charles River, Deutschland) were injected intraperitoneally with either PBS (control group) or 5 μg of wild type or tip-deleted mouse TNF-α per mouse, 5 hours prior to the intravenous injection of 2.106 3LL-R cells. This tumor inoculum normally leads to a 100% mortality 25 days after injection of the control group. […] At this time, all mice were killed and the lung weight as well as the amount of cancer cell nodules in the lung was assessed.

Trypanosoma musculi [4] = settings: administration in vivo during the course of infection; cited from earlier work
uromodulin = settings: cited from earlier work
[5] = system: Trypanosoma brucei brucei; assay: In vitro trypanocidal assay, T. brucei brucei; type: cell-based
Description: (§1) The Trypanosoma brucei brucei AnTat 1.1 (EATRO 1125) pleomorphic bloodstream form was kindly provided to us by Dr. N. Van Meirvenne of the Institute for Tropical Medecine, Antwerp, Belgium, and the Trypanosoma brucei rhodesiense Trp 11 pleomorphic bloodstream form was kindly provided to us by Dr. E. Bajyana Songa (Dept. Molecular Biology, Free University of Brussels, Belgium)
(§2) Two times 10^6 /ml purified bloodstream forms of Trypanosoma brucei brucei or T. brucei rhodesiense isolated 1 day before the first in vivo maximum peak is reached, were incubated for 5 h in phosphate buffered saline (PBS), 1% glucose, 1% normal mouse serum (incubation medium) at 37° C. with various concentrations of recombinant mTNF-α, recombinant hTNF-α or the TNF-α-derived tip peptides, all in the absence or the presence of anti-tip peptide polyclonal or monoclonal antibodies. After 5 h of incubation, the number of live (=moving) parasites was assessed (counting chamber) and compared the control wells in which only incubation medium was added to the trypanosomes. The spontaneous mortality in the control wells after 5 h was always lower than 10%. All treatments were done in quadruplicate and all reported in vitro trypanolysis experiments were repeated at least 3 times.

L929 cells = assay: L929 cell killing (cytotoxic/cytolytic/tumoricidal) assay; type: cell-based, mouse; settings: purified recombinant, produced in E. coli; assay not stated
Method: L929 fibrosarcoma cells were obtained from the Rega Institute, Leuven, Belgium.
After 18 h of culture at 37° C., viability of the cell cultures was assessed by dye uptake analysis. […] The plates were read spectrophotometrically at 577 nm with a Titertek multiscan MCC340 ELISA Reader (Flow Laboratories, McLean, Va.).

[6] = system: Trypanosoma brucei rhodesiense; assay: In vitro trypanocidal assay, T. brucei rhodesiense; type: cell-based; settings: 5 h
Description: as §1, §2

[7] = system: human ovarian cancer xenografts; settings: peritoneal cavity of nude mice; cited from earlier work
human melanoma cell line = settings: given 1 hour prior to intravenous inoculation; cited from earlier work
[8] = system: murine fibrosarcoma model, lung cancer model and melanoma models; settings: given within 3 days of tumor cell inoculation; cited from earlier work

TNF-α: Tumor necrosis factor-α, also known as cachectin, multifunctional cytokine
growth of T. musculi in vitro cultures (Trypanosoma musculi [1]): inhibited the growth
effects in experimental animals [2]: hypotension, leukopenia, and local tissue necrosis
increase of lung weight and number of nodules [3]: at least 100 ×
parasite development (Trypanosoma musculi [4]): net increase in parasite development
lectin-like affinity for uromodulin (uromodulin): has a lectin-like affinity for the glycoprotein uromodulin

hTNF-α: recombinant human tumor necrosis factor-alpha, produced in E. coli
concentration at which 50% of the animals (parasites) are killed ([5]; T. brucei brucei, 5 h): 5000 pg/mL
trypanocidal specific activity ([5]; in vitro trypanocidal assay): 2×10^5 U/mg of protein
specific activity (L929 cells): 2×10^7 units/mg
concentration at which 50% of the animals (parasites) are killed [6]: 5000 pg/mL

recombinant human TNF-α: recombinant human TNF-α of the cited literature
implantation of xenografts [7]: promoted the implantation of human ovarian cancer xenografts
pulmonary metastasis (human melanoma cell line): increase of pulmonary metastasis
formation of metastases [8]: inhibition of formation of metastases
